CycPeptMPDB entries from one study

Values of Hickey et al. 2016, doi:10.1021/acs.jmedchem.6b00222, as listed in CycPeptMPDB.

PAMPA measures passive passage through an artificial lipid membrane. Permeability is given as log10 of P in cm/s; higher (less negative) is more permeable.

SMILES,PAMPA (log10 cm/s)
CC(C)C[C@@H]1NC(=O)[C@H](CO)NC(=O)[C@@H]2CCCN2[C@H](C(=O)NC(C)(C)C)[C@H](C)NC(=O)[C@H](Cc2ccccc2)NC(=O)[C@H](Cc2ccc(O)cc2)NC1=O,-9.10
CC(C)C[C@H]1C(=O)N[C@@H](Cc2ccc(O)cc2)C(=O)N[C@@H](Cc2ccccc2)C(=O)N[C@@H](C)[C@@H](C(=O)NC(C)(C)C)N2CCC[C@H]2C(=O)N[C@@H]([C@@H](C)O)C(=O)N1C,-8.00
CC(C)C[C@@H]1NC(=O)[C@H](CC(C)C)NC(=O)[C@@H]2CCCN2[C@H](C(=O)NC(C)(C)C)[C@H](CSc2ccccc2)NC(=O)[C@H](Cc2ccccc2)NC(=O)CNC1=O,-5.80
CC(C)C[C@@H]1NC(=O)[C@H](CC(C)C)NC(=O)[C@@H]2CCCN2[C@H](C(=O)NC(C)(C)C)[C@H](CSc2ccccc2)NC(=O)[C@H](Cc2ccccc2)N(C)C(=O)CNC1=O,-6.10
CC(C)C[C@H]1NC(=O)[C@H](CO)NC(=O)[C@@H]2CCCN2C(=O)[C@H](C)NC(=O)[C@H](Cc2ccccc2)NC(=O)[C@H](Cc2ccccc2)NC1=O,-7.20
CC(C)C[C@@H]1NC(=O)[C@@H]2CCCN2[C@H](C(=O)NC(C)(C)C)[C@H](CSc2ccccc2)NC(=O)[C@H](Cc2ccccc2)N(C)C(=O)CN(C)C(=O)[C@H](CC(C)C)NC1=O,-5.90
CC(C)C[C@@H]1C(=O)N[C@H](Cc2ccc(O)cc2)C(=O)N[C@@H](Cc2ccccc2)C(=O)N[C@@H](C)[C@@H](C(=O)NC(C)(C)C)N2CCC[C@H]2C(=O)N[C@@H]([C@@H](C)O)C(=O)N1C,-6.10
CC(C)C[C@@H]1NC(=O)[C@@H]2CCCN2[C@H](C(=O)NC(C)(C)C)[C@H](CSc2ccccc2)NC(=O)[C@H](Cc2ccccc2)NC(=O)CN(C)C(=O)[C@H](CC(C)C)NC1=O,-5.60
CC(C)C[C@H]1NC(=O)[C@H]([C@@H](C)O)NC(=O)[C@@H]2CCCN2[C@H](C(=O)NC(C)(C)C)[C@H](C)NC(=O)[C@H](Cc2ccccc2)NC(=O)[C@H](Cc2ccc(O)cc2)NC1=O,-8.80
CC(C)C[C@@H]1C(=O)N[C@@H](Cc2ccc(O)cc2)C(=O)N[C@@H](Cc2ccccc2)C(=O)N[C@@H](C)[C@@H](C(=O)NC(C)(C)C)N2CCC[C@H]2C(=O)N[C@@H]([C@@H](C)O)C(=O)N1C,-8.40
CC(C)C[C@@H]1NC(=O)[C@H](CC(C)C)NC(=O)[C@@H]2CCCN2[C@H](C(=O)NC(C)(C)C)[C@H](C)NC(=O)[C@H](Cc2ccccc2)NC(=O)CNC1=O,-5.50
CC(C)C[C@H]1NC(=O)[C@H](CO)NC(=O)[C@@H]2CCCN2[C@H](C(=O)NC(C)(C)C)[C@H](C)NC(=O)[C@H](Cc2ccccc2)NC(=O)[C@H](Cc2ccccc2)NC1=O,-5.60
CC(C)C[C@H]1NC(=O)[C@H](COC(C)(C)C)NC(=O)[C@@H]2CCCN2[C@H](C(=O)NC(C)(C)C)[C@@H]2CN2C(=O)[C@H](Cc2ccccc2)NC(=O)[C@H](Cc2ccccc2)NC1=O,-5.30
CC(C)C[C@H]1NC(=O)[C@H](CO)NC(=O)[C@@H]2CCCN2[C@H](C(=O)NC(C)(C)C)[C@H](CSc2ccccc2)NC(=O)[C@H](Cc2ccccc2)NC(=O)[C@H](Cc2ccccc2)NC1=O,-5.60
CC(C)C[C@@H]1C(=O)N[C@H](Cc2ccc(O)cc2)C(=O)N(C)[C@@H](Cc2ccccc2)C(=O)N[C@@H](C)[C@@H](C(=O)NC(C)(C)C)N2CCC[C@H]2C(=O)N[C@@H]([C@@H](C)O)C(=O)N1C,-5.40
CC(C)C[C@@H]1NC(=O)[C@H]([C@@H](C)O)NC(=O)[C@@H]2CCCN2[C@H](C(=O)NC(C)(C)C)[C@H](C)NC(=O)[C@H](Cc2ccccc2)NC(=O)[C@H](Cc2ccc(O)cc2)NC1=O,-7.80

Again, the 3 entries with the lowest PAMPA:

SMILES,PAMPA (log10 cm/s)
CC(C)C[C@@H]1NC(=O)[C@H](CO)NC(=O)[C@@H]2CCCN2[C@H](C(=O)NC(C)(C)C)[C@H](C)NC(=O)[C@H](Cc2ccccc2)NC(=O)[C@H](Cc2ccc(O)cc2)NC1=O,-9.10
CC(C)C[C@H]1NC(=O)[C@H]([C@@H](C)O)NC(=O)[C@@H]2CCCN2[C@H](C(=O)NC(C)(C)C)[C@H](C)NC(=O)[C@H](Cc2ccccc2)NC(=O)[C@H](Cc2ccc(O)cc2)NC1=O,-8.80
CC(C)C[C@@H]1C(=O)N[C@@H](Cc2ccc(O)cc2)C(=O)N[C@@H](Cc2ccccc2)C(=O)N[C@@H](C)[C@@H](C(=O)NC(C)(C)C)N2CCC[C@H]2C(=O)N[C@@H]([C@@H](C)O)C(=O)N1C,-8.40

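The data file gives no further conditions (lipid, pH, time, direction or concentration), and values from different papers need not be comparable. The list need not hold all peptides of the study. Entries at the database's floor value (log10 P of -10) are not listed.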